Measurements taken from ChEMBL document CHEMBL1144249, “Identification of a novel class of androgen receptor antagonists based on the bicyclic-1H-isoindole-1,3(2H)-dione nucleus” (Bioorg Med Chem Lett, 2005).

Protein sequences, listed by entry. Tags and fused reporters are not part of them. Lines headed by an entry give the natural chain unless they say otherwise; changes in a name come on top.
UniProt P10275: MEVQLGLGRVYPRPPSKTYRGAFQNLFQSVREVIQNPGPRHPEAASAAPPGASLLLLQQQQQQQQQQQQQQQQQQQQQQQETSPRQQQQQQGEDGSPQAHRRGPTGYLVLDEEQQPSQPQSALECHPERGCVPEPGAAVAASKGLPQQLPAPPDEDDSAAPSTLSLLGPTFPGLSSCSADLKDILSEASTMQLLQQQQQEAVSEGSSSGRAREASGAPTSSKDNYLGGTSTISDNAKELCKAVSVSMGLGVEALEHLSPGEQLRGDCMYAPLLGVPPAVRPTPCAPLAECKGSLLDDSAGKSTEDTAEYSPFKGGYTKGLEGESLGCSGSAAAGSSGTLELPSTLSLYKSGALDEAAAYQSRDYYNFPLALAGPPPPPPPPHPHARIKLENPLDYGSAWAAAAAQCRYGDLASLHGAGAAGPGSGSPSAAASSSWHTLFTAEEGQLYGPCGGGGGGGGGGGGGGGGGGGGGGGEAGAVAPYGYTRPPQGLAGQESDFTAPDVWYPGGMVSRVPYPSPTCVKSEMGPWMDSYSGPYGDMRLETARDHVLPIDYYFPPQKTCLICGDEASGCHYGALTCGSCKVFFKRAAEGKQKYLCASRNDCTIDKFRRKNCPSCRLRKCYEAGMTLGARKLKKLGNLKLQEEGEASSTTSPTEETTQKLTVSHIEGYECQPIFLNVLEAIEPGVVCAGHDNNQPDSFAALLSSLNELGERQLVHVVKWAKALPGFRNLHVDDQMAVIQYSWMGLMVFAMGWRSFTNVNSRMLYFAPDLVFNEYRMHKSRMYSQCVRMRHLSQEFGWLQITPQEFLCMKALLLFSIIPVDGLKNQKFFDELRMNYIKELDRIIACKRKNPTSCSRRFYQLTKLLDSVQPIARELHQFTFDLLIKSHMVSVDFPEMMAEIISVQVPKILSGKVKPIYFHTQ

Assays:
Androgen receptor [1] = target: T1, Androgen receptor (Homo sapiens, UniProt P10275); test: Inhibition of [3H]DHT binding to androgen receptor of MDA-453 cells
Androgen receptor [2] = target: T1, Androgen receptor

SMILES	Ki (Androgen receptor [1]) [µM]	IC50 (Androgen receptor [2]) [µM]
O=C1[C@@H]2C3C=CC(C3)[C@@H]2C(=O)N1c1ccc(F)c(Cl)c1	0.177	
O=C1[C@@H]2C3CCC(C3)[C@@H]2C(=O)N1c1ccc([N+](=O)[O-])c(C(F)(F)F)c1 (stereo in doubt; 16)	0.117	0.114
O=C1[C@@H]2C3C=CC(C3)[C@@H]2C(=O)N1c1ccc2cccnc2c1	0.53	
